Measured values reported in US8952169B2 (Genentech, Inc., priority 2012, dated 2015).
pIC50: −log10 of the molar value.

Chains of the proteins cited; added tags and fusions are not shown.
UniProt Q15858, whole entry, looked up: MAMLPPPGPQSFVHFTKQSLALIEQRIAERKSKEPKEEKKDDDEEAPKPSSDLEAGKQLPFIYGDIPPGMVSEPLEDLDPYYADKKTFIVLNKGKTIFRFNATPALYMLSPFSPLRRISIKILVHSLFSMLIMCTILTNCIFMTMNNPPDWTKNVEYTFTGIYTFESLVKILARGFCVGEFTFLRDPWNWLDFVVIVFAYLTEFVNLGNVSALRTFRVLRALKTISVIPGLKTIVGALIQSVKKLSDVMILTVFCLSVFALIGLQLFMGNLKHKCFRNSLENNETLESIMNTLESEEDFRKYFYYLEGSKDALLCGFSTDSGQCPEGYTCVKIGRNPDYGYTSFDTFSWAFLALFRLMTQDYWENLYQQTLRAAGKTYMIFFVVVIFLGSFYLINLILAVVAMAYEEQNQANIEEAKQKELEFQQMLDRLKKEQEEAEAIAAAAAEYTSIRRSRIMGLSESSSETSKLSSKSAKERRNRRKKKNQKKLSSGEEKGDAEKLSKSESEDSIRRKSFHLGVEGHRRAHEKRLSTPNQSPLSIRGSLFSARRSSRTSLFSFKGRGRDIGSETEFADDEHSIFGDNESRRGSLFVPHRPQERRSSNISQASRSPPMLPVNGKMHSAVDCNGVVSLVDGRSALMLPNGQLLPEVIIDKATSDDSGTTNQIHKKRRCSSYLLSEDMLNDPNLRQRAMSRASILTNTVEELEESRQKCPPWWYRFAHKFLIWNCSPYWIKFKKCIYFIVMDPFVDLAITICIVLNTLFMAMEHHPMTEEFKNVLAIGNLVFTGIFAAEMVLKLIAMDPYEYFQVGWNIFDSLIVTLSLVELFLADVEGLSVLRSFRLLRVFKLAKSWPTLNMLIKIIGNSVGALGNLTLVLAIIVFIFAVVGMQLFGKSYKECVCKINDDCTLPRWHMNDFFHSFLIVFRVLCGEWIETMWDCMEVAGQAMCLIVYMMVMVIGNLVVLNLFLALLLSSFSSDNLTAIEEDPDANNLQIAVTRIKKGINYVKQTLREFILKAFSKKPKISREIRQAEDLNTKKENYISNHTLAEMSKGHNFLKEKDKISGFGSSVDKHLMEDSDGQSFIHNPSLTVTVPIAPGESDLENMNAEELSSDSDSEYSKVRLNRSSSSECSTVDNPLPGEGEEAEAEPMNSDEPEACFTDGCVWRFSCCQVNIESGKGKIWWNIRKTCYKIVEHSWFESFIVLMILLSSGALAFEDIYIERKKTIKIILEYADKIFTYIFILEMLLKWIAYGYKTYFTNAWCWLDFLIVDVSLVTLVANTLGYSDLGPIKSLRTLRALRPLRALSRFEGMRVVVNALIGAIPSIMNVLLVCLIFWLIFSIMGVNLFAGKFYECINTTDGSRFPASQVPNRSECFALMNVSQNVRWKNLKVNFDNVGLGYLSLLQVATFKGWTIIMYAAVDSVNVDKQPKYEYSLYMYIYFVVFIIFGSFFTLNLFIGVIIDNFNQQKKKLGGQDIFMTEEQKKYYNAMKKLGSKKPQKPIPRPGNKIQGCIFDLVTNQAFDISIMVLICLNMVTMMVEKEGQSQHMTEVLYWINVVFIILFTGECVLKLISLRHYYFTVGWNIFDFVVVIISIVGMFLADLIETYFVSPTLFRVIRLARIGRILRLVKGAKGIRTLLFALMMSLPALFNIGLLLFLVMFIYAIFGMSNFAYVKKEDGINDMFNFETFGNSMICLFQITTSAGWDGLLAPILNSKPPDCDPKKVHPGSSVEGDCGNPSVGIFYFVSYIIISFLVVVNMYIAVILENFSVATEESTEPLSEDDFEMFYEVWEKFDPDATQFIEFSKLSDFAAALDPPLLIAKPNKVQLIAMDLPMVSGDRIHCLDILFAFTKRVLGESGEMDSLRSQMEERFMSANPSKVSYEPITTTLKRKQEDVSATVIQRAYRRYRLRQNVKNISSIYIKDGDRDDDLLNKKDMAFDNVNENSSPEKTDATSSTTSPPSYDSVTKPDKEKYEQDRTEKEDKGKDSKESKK

Target: hNav1.7 (Homo sapiens (Human), UniProt Q15858)
Experiment: Tritiated aryl sulfonamide binding to membranes from cells expressing hNav1.7 and the β1 subunit (competitive binding)
Conditions: membranes with hNav1.7 and β1 subunit; [3H]compound displacement, 18 h, room temperature; read-out: NaV1.7 395 Memb Binding (IC50)
Method: Tritiated Aryl Sulfonamide Binding to Membranes Isolated from Cells that Heterologously Express hNav1.7 and the β1 Subunit
Preparation of membranes containing recombinantly expressed sodium channels: Frozen recombinant cell pellets were thawed on ice and diluted to 4 times the cell pellet weight with ice cold 50 mM Tris HCl, pH 7.4 buffer. The cell suspensions were homogenized on ice using a motorized glass dounce homogeniser. Homogenates were further diluted 8.4 times with ice cold 50 mM Tris HCl, pH 7.4 buffer and then centrifuged at 200×g at 4° C. for 15 min. The supernatants were collected and centrifuged at 10000×g at 4° C. for 50 min. The pellets were then re-suspended in 100 mM NaCl, 20 mM Tris HCl, pH 7.4 buffer containing 1% v/v protease inhibitors (Calbiochem) and re-homogenized on ice. The homogenized membranes were then processed through a syringe equipped with a 26 gauge needle. Protein concentrations were determined by Bradford Assay and the membranes were stored at −80° C.
Radioligand Binding Studies: Saturation experiments. A representative compound of formula (I) was tritiated. […] Non-specific binding was determined in the presence of 1 μM unlabelled compound. […] [^3H]compound bound to filters was quantified by liquid scintillation counting.
Competitive binding experiments. […] Bound radioactivity was determined by liquid scintillation counting. […]

pIC50: 5.96
Substance: N-(azetidin-1-ylsulfonyl)-5-cyclopropyl-4-((4,4-difluorocyclohexyl)-methoxy)-2-fluorobenzamide [Example 213]
